Source: patent US20140100156A1 (SANOFI, priority 2012, published 2014)

Amino acid sequences for entries named in this document (tags omitted). Residues count along the entry.
UniProt P47871, 26-477: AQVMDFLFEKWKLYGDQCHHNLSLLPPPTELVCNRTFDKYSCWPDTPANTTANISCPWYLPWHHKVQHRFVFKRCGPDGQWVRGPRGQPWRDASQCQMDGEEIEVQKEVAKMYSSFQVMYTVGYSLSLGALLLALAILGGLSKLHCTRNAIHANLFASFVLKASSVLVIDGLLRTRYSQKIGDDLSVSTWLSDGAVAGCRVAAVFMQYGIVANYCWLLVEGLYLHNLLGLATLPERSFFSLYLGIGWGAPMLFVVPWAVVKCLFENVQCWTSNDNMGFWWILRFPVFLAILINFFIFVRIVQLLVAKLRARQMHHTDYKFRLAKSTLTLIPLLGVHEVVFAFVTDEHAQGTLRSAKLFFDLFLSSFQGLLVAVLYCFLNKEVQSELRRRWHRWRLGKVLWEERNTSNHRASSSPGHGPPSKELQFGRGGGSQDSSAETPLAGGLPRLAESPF
UniProt P43220, 24-463: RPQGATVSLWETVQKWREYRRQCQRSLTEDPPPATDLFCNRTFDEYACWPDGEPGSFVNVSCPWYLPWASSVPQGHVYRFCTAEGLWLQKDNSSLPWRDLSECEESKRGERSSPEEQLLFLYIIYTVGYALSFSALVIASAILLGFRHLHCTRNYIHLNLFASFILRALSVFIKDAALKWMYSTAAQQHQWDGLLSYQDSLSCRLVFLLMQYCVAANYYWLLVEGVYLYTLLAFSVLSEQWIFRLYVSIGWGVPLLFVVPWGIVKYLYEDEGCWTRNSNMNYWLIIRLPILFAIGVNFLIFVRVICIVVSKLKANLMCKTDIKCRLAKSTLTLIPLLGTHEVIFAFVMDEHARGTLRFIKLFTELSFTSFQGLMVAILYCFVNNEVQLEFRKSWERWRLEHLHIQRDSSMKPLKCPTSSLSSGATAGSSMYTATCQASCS

Assays:
[1] = molecular target: T1, human glucagon receptor (Homo sapiens, UniProt P47871); experiment: cAMP response (HTRF) of HEK-293 cells stably expressing human glucagon receptor; assay type: cell-based; conditions: Table 5; cAMP, HEK-293; read-out: EC50 hGlucagon-R
T1 construct: expressed in transfected cells; host or cells: HEK-293

[2] = molecular target: T2, human GLP-1 receptor (Homo sapiens, UniProt P43220); experiment: cAMP response (HTRF) of HEK-293 cells stably expressing human GLP-1 receptor; assay type: cell-based; conditions: Table 5; cAMP, HEK-293; read-out: EC50 hGLP-1R
T2 construct: expressed in transfected cells; host or cells: HEK-293

Compound	EC50 [1] [pM]	EC50 [2] [pM]
CCCCCCCCCCCCCCCC(=O)N[C@@H](CCC(=O)NCCCC[C@H](NC(=O)[C@H](CCC(N)=O)NC(=O)[C@H](CCCCN)NC(=O)[C@H](CO)NC(=O)[C@H](CC(C)C)NC(=O)[C@H](CC(=O)O)NC(=O)[C@H](CO)NC(=O)[C@@H](NC(=O)[C@H](Cc1ccccc1)NC(=O)[C@@H](NC(=O)CNC(=O)[C@H](CCC(N)=O)NC(=O)C(C)(C)NC(=O)[C@@H](N)Cc1c[nH]cn1)[C@@H](C)O)[C@@H](C)O)C(=O)N[C@@H](CC(=O)O)C(=O)N[C@@H](CO)C(=O)N[C@@H](CCC(N)=O)C(=O)N[C@@H](C)C(=O)N[C@@H](C)C(=O)N[C@@H](CCC(N)=O)C(=O)N[C@@H](CC(=O)O)C(=O)N[C@@H](Cc1ccccc1)C(=O)N[C@H](C(=O)N[C@@H](CCC(=O)O)C(=O)N[C@@H](Cc1c[nH]c2ccccc12)C(=O)N[C@@H](CC(C)C)C(=O)N[C@@H](CCCCN)C(=O)N[C@@H](C)C(=O)NCC(=O)NCC(=O)N1CCC[C@H]1C(=O)N[C@@H](CO)C(=O)N[C@@H](CO)C(=O)NCC(=O)N[C@@H](C)C(=O)N1CCC[C@H]1C(=O)N1CCC[C@H]1C(=O)N1CCC[C@H]1C(=O)N[C@@H](CO)C(N)=O)[C@@H](C)CC)C(=O)O [compound 155]	25.1	2.5
CCCCCCCCCCCCCCCCCC(=O)N[C@@H](CCC(=O)NCCCC[C@H](NC(=O)[C@H](CCC(N)=O)NC(=O)[C@H](CCCCN)NC(=O)[C@H](CO)NC(=O)[C@H](CC(C)C)NC(=O)[C@H](CC(=O)O)NC(=O)[C@H](CO)NC(=O)[C@@H](NC(=O)[C@H](Cc1ccccc1)NC(=O)[C@@H](NC(=O)CNC(=O)[C@H](CCC(N)=O)NC(=O)C(C)(C)NC(=O)[C@@H](N)Cc1c[nH]cn1)[C@@H](C)O)[C@@H](C)O)C(=O)N[C@@H](CC(=O)O)C(=O)N[C@@H](CO)C(=O)N[C@@H](CCC(N)=O)C(=O)N[C@@H](C)C(=O)N[C@@H](C)C(=O)N[C@@H](CCC(N)=O)C(=O)N[C@@H](CC(=O)O)C(=O)N[C@@H](Cc1ccccc1)C(=O)N[C@H](C(=O)N[C@@H](CCC(=O)O)C(=O)N[C@@H](Cc1c[nH]c2ccccc12)C(=O)N[C@@H](CC(C)C)C(=O)N[C@@H](CCCCN)C(=O)N[C@@H](C)C(=O)NCC(=O)NCC(=O)N1CCC[C@H]1C(=O)N[C@@H](CO)C(=O)N[C@@H](CO)C(=O)NCC(=O)N[C@@H](C)C(=O)N1CCC[C@H]1C(=O)N1CCC[C@H]1C(=O)N1CCC[C@H]1C(=O)N[C@@H](CO)C(N)=O)[C@@H](C)CC)C(=O)O [compound 156]	12.5	2.9
CCCCCCCCCCCCCCCCCC(=O)N[C@@H](CCC(=O)NCCCC[C@H](NC(=O)[C@H](CCC(N)=O)NC(=O)[C@H](CCCCN)NC(=O)[C@H](CO)NC(=O)[C@H](CC(C)C)NC(=O)[C@H](CC(=O)O)NC(=O)[C@H](CO)NC(=O)[C@@H](NC(=O)[C@H](Cc1ccccc1)NC(=O)[C@@H](NC(=O)CNC(=O)[C@H](CCC(N)=O)NC(=O)[C@@H](CO)NC(=O)[C@@H](N)Cc1c[nH]cn1)[C@@H](C)O)[C@@H](C)O)C(=O)N[C@@H](CC(=O)O)C(=O)N[C@@H](CO)C(=O)N[C@@H](CCCNC(=N)N)C(=O)N[C@@H](CCCNC(=N)N)C(=O)N[C@@H](C)C(=O)N[C@@H](CCC(N)=O)C(=O)N[C@@H](CC(=O)O)C(=O)N[C@@H](Cc1ccccc1)C(=O)N[C@H](C(=O)N[C@@H](CCC(=O)O)C(=O)N[C@@H](Cc1c[nH]c2ccccc12)C(=O)N[C@@H](CC(C)C)C(=O)N[C@@H](CCCCN)C(=O)N[C@@H](C)C(=O)N[C@H](C)C(=O)NCC(=O)N1CCC[C@H]1C(=O)N[C@@H](CO)C(=O)N[C@@H](CO)C(=O)NCC(=O)N[C@@H](C)C(=O)N1CCC[C@H]1C(=O)N1CCC[C@H]1C(=O)N1CCC[C@H]1C(=O)N[C@@H](CO)C(N)=O)[C@@H](C)CC)C(=O)O [compound 161]	2.4	5
